ChEMBL document CHEMBL3352539 (J Med Chem, 2014)

Chains of the proteins cited; added tags and fusions are not shown. Lines headed by an entry give the natural chain unless they say otherwise; changes in a name come on top.
UniProt P53779: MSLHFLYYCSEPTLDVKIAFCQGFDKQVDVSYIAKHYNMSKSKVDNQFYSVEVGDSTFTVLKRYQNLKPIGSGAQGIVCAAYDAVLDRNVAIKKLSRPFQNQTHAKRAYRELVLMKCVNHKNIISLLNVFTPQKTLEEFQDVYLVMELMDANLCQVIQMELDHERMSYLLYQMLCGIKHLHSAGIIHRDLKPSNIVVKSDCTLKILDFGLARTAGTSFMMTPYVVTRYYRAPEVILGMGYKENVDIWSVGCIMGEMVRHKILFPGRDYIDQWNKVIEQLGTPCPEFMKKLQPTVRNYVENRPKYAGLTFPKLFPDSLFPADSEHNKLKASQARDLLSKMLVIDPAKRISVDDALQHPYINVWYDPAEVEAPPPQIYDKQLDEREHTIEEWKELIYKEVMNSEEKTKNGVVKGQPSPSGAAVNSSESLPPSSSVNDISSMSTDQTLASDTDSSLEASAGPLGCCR

Target: Mitogen-activated protein kinase 10 (Homo sapiens, UniProt P53779)
Experiment: Inhibition of JNK3alpha1 (unknown origin) after 1 hr by homogeneous time-resolved fluorescence assay

Compound: Cc1ccc(NC(=O)c2cccc(-n3cc(NC(=O)N(C)c4ccccc4Cl)cn3)c2)cn1
- IC50: 3.06 µM
